Columns and labels:
Dihydrofolate reductase = biological target: T1, Dihydrofolate reductase (Pneumocystis carinii, UniProt P16184)
T1 sequence (P16184 whole entry): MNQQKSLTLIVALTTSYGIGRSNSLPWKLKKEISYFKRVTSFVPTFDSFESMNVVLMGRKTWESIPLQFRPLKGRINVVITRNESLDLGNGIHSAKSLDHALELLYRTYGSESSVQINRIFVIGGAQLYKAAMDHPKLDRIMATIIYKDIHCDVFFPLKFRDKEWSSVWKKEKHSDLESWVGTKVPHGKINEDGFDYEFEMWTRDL

[1] = biological target: T2, Bifunctional dihydrofolate reductase-thymidylate synthase (Toxoplasma gondii, UniProt Q07422)
T2 sequence (Q07422 whole entry): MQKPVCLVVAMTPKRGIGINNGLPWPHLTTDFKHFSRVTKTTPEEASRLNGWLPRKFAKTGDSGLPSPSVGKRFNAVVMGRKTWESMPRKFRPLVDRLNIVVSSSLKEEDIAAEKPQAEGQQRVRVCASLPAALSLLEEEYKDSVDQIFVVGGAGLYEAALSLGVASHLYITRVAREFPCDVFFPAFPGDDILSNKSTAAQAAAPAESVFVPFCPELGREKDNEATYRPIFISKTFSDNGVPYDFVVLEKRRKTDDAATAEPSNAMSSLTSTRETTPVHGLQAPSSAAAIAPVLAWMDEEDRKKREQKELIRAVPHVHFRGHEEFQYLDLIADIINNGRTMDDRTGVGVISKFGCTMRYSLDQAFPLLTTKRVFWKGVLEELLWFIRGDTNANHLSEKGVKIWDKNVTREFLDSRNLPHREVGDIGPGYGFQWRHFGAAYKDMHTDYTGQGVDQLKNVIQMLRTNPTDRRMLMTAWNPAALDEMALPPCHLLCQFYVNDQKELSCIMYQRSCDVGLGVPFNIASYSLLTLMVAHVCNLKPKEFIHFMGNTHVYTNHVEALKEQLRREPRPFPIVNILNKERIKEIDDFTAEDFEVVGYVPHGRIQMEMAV

Structure (SMILES)	IC50 (Dihydrofolate reductase) [µM]	IC50 [1] [nM]
CCc1nc(N)nc(N)c1-c1ccc(Cl)c(/N=N/N2CCOCC2)c1	4.7	
CCc1nc(N)nc(N)c1-c1ccc(Cl)c(/N=N/N(CCOC(C)=O)Cc2ccccc2)c1		690

Reference: ChEMBL document CHEMBL1130062 (J Med Chem, 1997)
